# Data taken from patent US20060167229A1, “Biologically active peptide conjugates” (priority 2002, published 2006).
# How the values were obtained:
# [1] = tested on: T lymphocyte; experiment: T lymphocyte transformation test (ConA-stimulated spleen cells of treated mice, MTT); assay type: in vivo, BALB/c mice; conditions: healthy mice, saline 1.3 ± 0.1
# Description: The above substances were all dissolved in 0.5 ml saline and injected intraperitoneal (i.p.) for 15 continuous days, once per day.
# The BALB/c mice were randomly divided into the peptide, IFN, IL-2, and saline groups. Ten mice per group. The day after the last test substance administration, the mice were sacrificed by cervical dislocation. The spleen was isolated aseptically and manually dispersed in cold D-Hank's solution using an injection needle. The dispersed cell suspension was further sieved through a 100 gauge 150 μm diameter stainless steel sieve. After centrifugation at 200 g for 10 minutes, the supernatant was discarded. The cell pellet was re-suspended in 10 volume of Tris-NH4Cl buffer and then kept standing still for 10 minutes at room temperature. The suspended cells were collected by centrifugation at 150 g for 10 minutes. The cells were washed 2-4 times with cold D-Hank's solution by re-suspending and collecting by centrifugation with condition as described above. The washed cells were then diluted to the desired cell densities by RPMI-1640 culture medium, containing 10% fetal bovine serum.
# Spleen cells of density 1×10^6/ml were placed onto a 96 wells cell culture plate, 100 μL/well, three parallel wells each of the assay sample and control sample per mouse. To the assay wells, 100 μl/well ConA of 100 μg/ml in RPMI-1640 was added, and […] plain RPMI-1640 was used for the controls. The cells were incubated for 66 hrs at 37° C., 5% CO2. The cells were then pelleted by centrifugation at 150 g for 10 minutes. The supernatant was collected and stored at −20° C. for cytokines IL-2 and IFN determination.
# 50 μl/well MTT of 1 mg/ml in RPMI-1640 was added to the cell pellet and the cells re-suspended by shaking for 2 minutes. The incubation was continued for 4 hours. The supernatant was discarded after centrifugation at 150 g for 10 minutes. 120 μl 40 mM HCl-2-propanol was added to the cell pellet and shaken for 3 minutes. […]
# Each mouse formed three assay wells and three control wells. The Stimulation Index (SI) of each mouse was obtained by first deriving the average OD of the three parallel wells, then dividing the value of the assay wells by the control wells.
# [2] = tested on: mononuclear phagocyte; experiment: Carbon particle clearance test, phagocytosis function; assay type: in vivo, BALB/c mice; design: key: α = cube root of K × (body weight ÷ liver+spleen weight); conditions: healthy mice, saline 5.1 ± 0.6
# Description: On the next day after the last test substance administration (day 16), the mice were injected with […] body weight India ink (5 times dilution with normal saline) from the tail vein.
# One minute and five minutes after Indian ink injection, 20 μl blood was obtained from the eye canthus with a heparinized tubing. The blood was mixed with 2 ml 0.1% w/v Na2CO3 and then OD680 nm obtained. The outline clear index K was calculated by the following formula: K=(lgA1−lgA2)÷(t2−t1)
# One day after the last test substance administration (day 16), the liver, spleen, and thymus gland were separated and blotted dry with filter paper and weighed. The phagocytosis index α was calculated as below: α=(^3√{square root over ( )}K)(W÷WLS)
# [3] = peptide 0.5 μg/kg/day i.p. 15 days (IFN-γ, IL-2 3×10^5 IU/kg/day)
# [4] = peptide 5 μg/kg/day i.p. 15 days (IFN-γ, IL-2 3×10^5 IU/kg/day)
# [5] = peptide 50 μg/kg/day i.p. 15 days (IFN-γ, IL-2 3×10^5 IU/kg/day)
# [6] = peptide 500 μg/kg/day i.p. 15 days (IFN-γ, IL-2 3×10^5 IU/kg/day)
substance,measurement,setting,value
"IL-2: recombinant human IL (rhIL)-2, Shanghai Huaxin Biotech Inc.; positive control",X ± SD (stimulation index),[1]; [3],1.6 ± 0.1
same,X ± SD (stimulation index),[1]; [4],1.6 ± 0.1
same,X ± SD (stimulation index),[1]; [5],1.8 ± 0.2
same,X ± SD (stimulation index),[1]; [6],1.7 ± 0.2
same,X ± SD (phagocytotic index),[2]; [3],5.7 ± 0.8
same,X ± SD (phagocytotic index),[2]; [4],5.7 ± 0.8
same,X ± SD (phagocytotic index),[2]; [5],5.7 ± 0.8
same,X ± SD (phagocytotic index),[2]; [6],5.7 ± 0.8
